Experimental findings from patent US6753345B2, “7-hexanolytaxol and methods for preparing the same” (Hauser, Inc., priority 1998, dated 2004) are described below.

For this data set, the system named is NCI-H322M. The data set is described as follows: SRB cytotoxicity screening assay (Non-Small Cell Lung Cancer). The following applies: PG=−50, 48 hour incubation.

In the case of `CCCCCC(=O)O[C@H]1C[C@H]2OC[C@@]2(OC(C)=O)[C@H]2[C@H](OC(=O)c3ccccc3)[C@]3(O)C[C@H](OC(=O)[C@H](O)[C@@H](NC(=O)c4ccccc4)c4ccccc4)C(C)=C([C@@H](OC(C)=O)C(=O)[C@]12C)C3(C)C` [7-hexanoyltaxol], the “Log10 LC50” value is greater than −4.00 molar.
